{
  "source": "patent US11970583B2",
  "about": "“Therapeutic dendrimer” (Starpharma Pty Ltd., priority 2018, dated 2024)",
  "experiment": "Cabazitaxel release from dendrimers in PBS at 37° C. and pH 7.4",
  "assay_type": "physicochemical",
  "conditions": "for % of Cabazitaxel Released: Exp #2, PBS 37° C. pH 7.4",
  "description": "The compounds tested were:",
  "data": [
    {"substance": "BHALys[Lys]32[α-DGA-Cabazitaxel]32†[ε-PEG˜1100]32‡ [SPL9049]", "values": [
      {"measurement": "% API released at 24 hours (Exp #1)", "setting": "PBS, 37° C., pH 7.4", "result": 51.5, "unit": "%"},
      {"measurement": "% API released at 24 hours (Exp #2)", "setting": "PBS, 37° C., pH 7.4", "result": 32, "unit": "%"},
      {"measurement": "Time to 50% release (mean) (Exp #2)", "setting": "PBS, 37° C., pH 7.4", "result": 54, "unit": "h"},
      {"measurement": "release of Cabazitaxel over 24 hours", "setting": "PBS, 37° C., pH 7.4", "result": "30 to 50", "unit": "%"},
      {"measurement": "% of Cabazitaxel Released", "setting": "time 0 h", "result": 0.97, "unit": "%"},
      {"measurement": "% of Cabazitaxel Released", "setting": "time 24 h", "result": 32.06, "unit": "%"},
      {"measurement": "% of Cabazitaxel Released", "setting": "time 48 h", "result": 45.156, "unit": "%"},
      {"measurement": "% of Cabazitaxel Released", "setting": "time 67 h", "result": 59.676, "unit": "%"},
      {"measurement": "% of Cabazitaxel Released", "setting": "time 87 h", "result": 67.86, "unit": "%"}
    ]}
  ]
}
